Results published in patent US20040229379A1, “Assay” (priority 2003, published 2004).

The chains behind the UniProt entries cited, without tags or fusion partners.
UniProt Q16654, whole entry: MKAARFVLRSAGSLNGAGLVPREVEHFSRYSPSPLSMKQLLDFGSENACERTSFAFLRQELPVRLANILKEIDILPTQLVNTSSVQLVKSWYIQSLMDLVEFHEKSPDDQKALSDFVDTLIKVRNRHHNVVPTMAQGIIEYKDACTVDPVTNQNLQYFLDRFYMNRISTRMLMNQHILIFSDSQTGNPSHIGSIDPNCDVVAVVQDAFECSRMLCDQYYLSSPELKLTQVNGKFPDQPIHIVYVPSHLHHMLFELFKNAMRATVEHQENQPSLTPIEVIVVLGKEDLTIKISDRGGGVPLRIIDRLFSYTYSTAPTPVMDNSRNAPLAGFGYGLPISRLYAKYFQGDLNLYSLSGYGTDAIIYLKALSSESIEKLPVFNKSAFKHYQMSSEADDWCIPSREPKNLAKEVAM

Assays:
PDHK4 = PDHK4 (Homo sapiens, UniProt Q16654); experiment: Saturation binding assay (Kd determination) by fluorescence polarisation, PDHK4; settings: read-out: Kd of binding to PDHK4; constant concentration (10 nM) of fluorescent binder, serial dilutions of PDHK4; tested form: HCl
Method: Recombinant PDHK-4 protein was generated by expression in BL21pLysS bacterial cells. Full length PDHK-4 amplified from human skeletal muscle cDNA library (Clontech) was cloned into an N-terminally his-tagged pET vector (Novagen) and transformed into BL21 cells (BL21 plys5, Novagen). Cultures were allowed to reach an OD600 of 0.6 before induction of PDHK expression by the addition of 1 mM IPTG. The cultures were incubated for a further 5 h at 30° C. with 220 rpm shaking. Bacterial cell pellets were harvested and extracted as described above. PDHK-4 was purified by a batch method utilising Ni-NTA agarose beads (Quiagen). The PDHK-4 eluted by addition of 500 mM imidazole was ˜95% pure.
(§1) The assay buffer consisted of 20 mM potassium phosphate, pH 7.8, containing 1 mM CHAPS. A 10 mM stock solution of fluorescent binder A was prepared in DMSO and further diluted to 40 nM in assay buffer (final DMSO concentration 0.004%). PDHK2 was diluted over the concentration range 2 μM to 0.5 nM and PDHK4 from 8 μM to 2 nM. […] Polarization values were then determined in a BMG PolarStar plate reader.
(§2) Serial dilutions of PDHK were prepared over the final concentration range 500-0.49 nM for PDHK2 and 2000 to 1.95 nM for PDHK4 using halving dilutions. […] Plates were shaken, and, after incubation for 60 min, read in the Polarstar Galaxy, as described above for the competition assay. […]

PDHK2 = PDHK2 (Homo sapiens, UniProt Q15119); experiment: Saturation binding assay (Kd determination) by fluorescence polarisation, PDHK2; settings: read-out: Kd of binding to PDHK2; constant concentration (10 nM) of fluorescent binder, serial dilutions of PDHK2; tested form: HCl
Method: Recombinant PDHK-2 protein was generated by infection of Hi5 insect cells with a baculovirus encoding an N-terminally his-tagged version of PDHK-2 (amino acids 10-407). Cells were infected at a MOI of 10 for 48 h. Cell pellets were harvested and extracted in 50 mM Tris (pH 8.0), 150 mM NaCl, 5 mM mercaptoethanol, 20 mM imidazole (pH 8.0) and standard protease inhibitors. Soluble protein was purified by affinity chromatography on a Ni-chelate column. PDHK-2 was eluted from the Ni-column using a 40-500 mM gradient of imidazole (pH 8.0). The resulting protein was >95% pure.
as §1, §2

Structure (SMILES): Cc1cc(C)n2c1C=C1C=CC(CCC(=O)N3C[C@H](C)N(C(=O)[C@@](C)(O)C(F)(F)F)C[C@H]3C)=[N+]1[B-]2(F)F
- Kd (PDHK4): 61 nM
- Kd (PDHK2): 4.3 nM
